Tested on: MV-4-11 cells
Assay: MV-4-11 cell proliferation inhibition (MTS assay)
Format: cell-based
Details: Homo sapiens, MV4-11, reference compounds, read-out: cell growth inhibitory activity (IC50)
Procedure: MV-4-11 cells were cultured in IMDM medium supplemented with 10% fetal bovine serum and collected. The cell concentration was diluted according to a 7-day incubation period, and 180 µL of cell suspension was added to each well of a 96-well plate, resulting in 2,000 cells per well. […] The test compounds were prepared from a 10 mM stock solution and serially diluted in a five-fold gradient, and 20 µL of the diluted compound solution was added to each compound-treated well (final DMSO concentration 0.2%). The cells were incubated in a 37 °C, 5% CO2 incubator for 7 days. After incubation, the reaction solution was prepared according to the MTS assay kit instructions (Promega, G5430), and 20 µL was added to each well. The plate was further incubated at 37 °C with 5% CO2 for 3-4 hours. The absorbance at 490 nm was measured using a microplate reader, and the absorbance at 690 nm was used as the background value. The final raw data were calculated as OD490 - OD690. […] The IC50 values for cell proliferation inhibition were determined using GraphPad Prism 5.0. Each experiment was repeated three times, and three parallel replicates were performed in each experiment to calculate the mean value and standard deviation.
Table 3. Inhibitory Activity of Compounds on MV-4-11 Cell Proliferation

Nc1cccc2c1CN(C1CCC(=O)NC1=O)C2=O (stereo not shown) [Lenalidomide, reference compound]
IC50: > 20 µM

— patent EP4778920A1, “INDAZOLONE COMPOUND, PREPARATION METHOD THEREFOR, PHARMACEUTICAL COMPOSITION, AND USE” (Shanghai Institute of Materia Medica, Chinese Academy of …, priority 2023, dated 2025)
